Assay [1] addresses T1, IDH1 (Homo sapiens, UniProt O75874). In words: IC50 dose-response curve fits (Example 1, assay not described). The assay is classed as biochemical. The note with it: curve fit.
Another assay deals with T2, wtIDH1 (Homo sapiens, UniProt O75874).
T2 construct: purchased ActiveMotif
In words: HTRF IDH1 binding assay (displacement of probe IK-1-012). The note with it: 200 nM probe; read-out: IC50 of competitive displacement of IK-1-012 from wtIDH1.

Protein sequences, listed by entry. Tags and fused reporters are not part of them.
UniProt O75874, whole entry: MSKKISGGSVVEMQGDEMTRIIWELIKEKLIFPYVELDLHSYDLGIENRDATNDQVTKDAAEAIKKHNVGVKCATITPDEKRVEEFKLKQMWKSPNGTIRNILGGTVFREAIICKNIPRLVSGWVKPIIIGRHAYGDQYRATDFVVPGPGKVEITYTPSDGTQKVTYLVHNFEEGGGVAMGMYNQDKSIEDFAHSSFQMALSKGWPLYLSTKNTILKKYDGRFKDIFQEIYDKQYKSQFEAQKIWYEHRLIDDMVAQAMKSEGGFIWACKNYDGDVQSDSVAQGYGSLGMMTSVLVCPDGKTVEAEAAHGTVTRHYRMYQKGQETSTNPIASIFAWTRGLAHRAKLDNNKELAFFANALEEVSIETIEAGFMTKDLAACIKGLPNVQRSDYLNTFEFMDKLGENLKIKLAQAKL

The target in assay [2] is T1, IDH1. In words: IC50 in two trials and mean (Example 1, assay not described). The assay is classed as biochemical.

Each structure is given as a SMILES string. pIC50: −log10 of the molar value.

For 1 compound, IC50 results are on record in patent publication US20250092035A1, “ISOCITRATE DEHYDROGENASE 1 INHIBITORS AND METHODS OF USE THEREOF” (THE WISTAR INSTITUTE OF ANATOMY AND BIOLOGY, priority 2022, published 2025).

A word on the pIC50: it is −log10 of the IC50, conventionally taken in molar units. Take `C[C@@H]1CN(C(=O)c2ccc[nH]2)Cc2c(C(=O)Nc3cccc([C@@H](C)O)c3)nn(Cc3ccc(F)cc3)c21` [FSM-206, reference compound]: the pIC50 is 7.66 against IDH1 [1]; 8.72 on wtIDH1; 7.60 at IDH1 [2] (Trial 1, read-out: IC50, Trial 1); 7.57 on IDH1 [2] (Trial 2, read-out: IC50, Trial 2); 7.59 on IDH1 [2] (mean of the trials, read-out: Mean IC50).
